In PubChem BioAssay AID743247 (Broad Institute, 2014):
This is a selection; strong and weak results do not stand in their true shares. Some salts or complexes appear as unconnected parts, following the source record. Active and inactive are the calls of the source.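 Rule for the calls: active = mean inhibition across replicates of 30% or more, regardless of how many single replicates reach that level; inconclusive = mean under 30% yet at least half of replicates reach 30%; inactive = the rest.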

Assay: inhibitors of fibronectin matrix deposition, primary screen, AH1F cells, Alexa488-fibronectin fluorescence, plate reader (AID 743247);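 note: positive control wells lacked labelled fibronectin entirely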
Conditions: AH1F fibroblasts, overnight, at 12.6 µM, active compounds read high
How it was run: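 Assay system: AH1F fibroblast monolayer, labelled fibronectin deposition. Amount: 10000 cells per well. Also added: labelled fibronectin 24 nM. Compound: single-point pinned compound. Incubation: cell attachment 1 h, compound and FN exposure overnight. Detection: fluorescence after three HBSS washes, excitation 485 nm, emission 525 nm. Read-out: inhibition of fibronectin deposition signal.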

| Compound | inhibition |
| --- | --- |
| CCCCCCCCCCCCCCCC1C[N+](C)(C)CCOP(C)(=O)O1 (stereo unspecified) | inactive: -0.377% |
| CP(=O)(OCCOc1ccccc1)OCCOc1ccccc1 | inactive: 9.43% |
| COc1ccc(OP(C)(=O)Nc2ccccc2Br)cc1 (stereo unspecified) | inactive: 1.01% |
| Cc1cc(C)cc(OP(C)(=O)Nc2cccc(C(F)(F)F)c2)c1 (stereo unspecified) | inactive: 6.63% |
| O=C1C(O)=C([N+](=O)[O-])C(=O)C(O)=C1[N+](=O)[O-] | inactive: -5.21% |
| COc1ccccc1OP(C)(=O)Nc1ccc(C)cc1C (stereo unspecified) | inactive: -0.179% |
| Cc1c(NP(C)(=O)Oc2ccc(C(C)C)cc2)c(=O)n(-c2ccccc2)n1C (stereo unspecified) | inactive: -2.75% |
| O=[N+]([O-])c1cc([N+](=O)[O-])c(Nc2ccccn2)c([N+](=O)[O-])c1 | inactive: -5.25% |
| COc1ccc(OP(C)(=O)Nc2ccccn2)cc1 (stereo unspecified) | inactive: 9.78% |
| CN(C)CCOC(=O)C(O)(c1ccccc1)C1CCCC1 (stereo unspecified) | inactive: -7.68% |
| COc1ccccc1OP(C)(=O)Nc1ccc(Br)cc1 (stereo unspecified) | inactive: 3.85% |
| CN(C)C(=O)c1c([N+](=O)[O-])cc([N+](=O)[O-])cc1[N+](=O)[O-] | inactive: 6.67% |
| COc1ccccc1OP(C)(=O)Nc1ccccc1Br (stereo unspecified) | inactive: -34.6% |
| CC(C)(C)c1ccc(OP(C)(=O)O)cc1 | inactive: -9.41% |
| O=C(OCCCN1CCCC1)C(O)(c1ccccc1)C1CCCCC1 (stereo unspecified) | inactive: 7.46% |
| COc1ccccc1OP(C)(=O)Nc1c(C)n(C)n(-c2ccccc2)c1=O (stereo unspecified) | inactive: -4.58% |
| CCc1ccc(OP(C)(=O)Nc2cccnc2)cc1 (stereo unspecified) | inactive: 4.65% |
| CCN(CC)CC(O)COC(=O)C(O)(c1ccccc1)C1CCCCC1 (stereo unspecified) | inactive: 11.2% |
| CCOC(=O)c1ccc(NP(C)(=O)Oc2ccc(Cl)cc2)cc1 (stereo unspecified) | inactive: -3.23% |
| CP(=O)(OC12CC3CC(CC(C3)C1)C2)OC12CC3CC(CC(C3)C1)C2 | inactive: 9.3% |
| Nc1ccc2c(ccc3cccnc32)n1.O=[N+]([O-])c1cc([N+](=O)[O-])c(O)c([N+](=O)[O-])c1 | inactive: 0.675% |
| Cc1c(C(c2ccc3c(c2)OCO3)c2c(C)n(C)n(-c3ccccc3)c2=O)c(=O)n(-c2ccccc2)n1C.O=[N+]([O-])c1cc([N+](=O)[O-])c(O)c([N+](=O)[O-])c1 | inactive: -6.3% |
| O=[N+]([O-])c1ccc(OP2(=O)COCCO2)cc1 (stereo unspecified) | inactive: -6.21% |
| Cc1cc(-c2cccc3ccccc23)c(C)cn1.O=[N+]([O-])c1cc([N+](=O)[O-])c(O)c([N+](=O)[O-])c1 | inactive: 5.09% |
| O=[N+]([O-])c1cc([N+](=O)[O-])c(NCC2CCS(=O)(=O)C2)c([N+](=O)[O-])c1 (stereo unspecified) | inactive: -17.9% |
| COc1ccc(NP(C)(=O)Oc2ccccc2OC)cc1 (stereo unspecified) | inactive: 3.23% |

| Compound | inhibition |
| --- | --- |
| COc1ccc(OP(C)(=O)Nc2cccc(Br)c2)cc1 (stereo unspecified) | inactive: 0.645% |
| O=[N+]([O-])c1cc([N+](=O)[O-])c(C(F)(F)F)c([N+](=O)[O-])c1O | inactive: -13.7% |
| CCOP(C)(=S)SCC(=O)NC(C)(CC)C(=O)O (stereo unspecified) | inactive: -3.79% |
| CP(=O)(Nc1ccc(SC(F)(F)F)cc1)Oc1ccc(F)cc1 (stereo unspecified) | inactive: -0.88% |
| COc1ccc2c(c1O)-c1c(O)c(OC)cc3c1[C@H](C2)[N+](C)(C)CC3.O=[N+]([O-])c1cc([N+](=O)[O-])c([O-])c([N+](=O)[O-])c1[O-] | inactive: 1.74% |
| O=C(OC1CN2CCC1CC2)c1ccc([N+](=O)[O-])cc1 (stereo unspecified) | inactive: -1.94% |
| O=C(OCCN1CCN(CCOCc2ccccc2)CC1)C(O)(c1ccccc1)c1ccccc1 | inactive: -0.156% |
| CC(C)c1ccc(OP(C)(=O)Nc2ccc(SC(F)(F)F)cc2)cc1 (stereo unspecified) | inactive: -4.69% |
| O=[N+]([O-])c1cc([N+](=O)[O-])c(Nc2ccc(Cl)cc2)c([N+](=O)[O-])c1 | inactive: 9.64% |
| CP(=O)(Nc1ccccc1)Oc1ccc(F)cc1 (stereo unspecified) | inactive: 0.785% |
| O=[N+]([O-])c1cc([N+](=O)[O-])c(OC2CCCCC2O)c([N+](=O)[O-])c1 (stereo unspecified) | inactive: -5.82% |
| CCCCCOc1ccc(NP(C)(=O)Oc2ccc(Cl)cc2Cl)cc1 (stereo unspecified) | inactive: -12.2% |
| Cc1c([N+](=O)[O-])cc([N+](=O)[O-])c(Br)c1[N+](=O)[O-] | inactive: -2.86% |
| CCOC(=O)c1ccc(NP(C)(=O)Oc2ccc(F)cc2)cc1 (stereo unspecified) | inactive: -5.32% |
| COc1ccc(OP(C)(=O)Nc2ccc(SC(F)(F)F)cc2)cc1 (stereo unspecified) | inactive: 3.78% |
| CCN(CC)CCCNc1ccccc1[N+](=O)[O-].O=[N+]([O-])c1cc([N+](=O)[O-])c(O)c([N+](=O)[O-])c1 | inactive: -7.35% |
| CC1=NCCc2c1[nH]c1ccccc21.O=[N+]([O-])c1cc([N+](=O)[O-])c(O)c([N+](=O)[O-])c1 | inactive: 1.01% |
| O=C(O)c1cccc(Nc2c([N+](=O)[O-])cc([N+](=O)[O-])cc2[N+](=O)[O-])c1 | inactive: -3.24% |
| CP(=O)(Nc1cccc(Br)c1)Oc1ccccc1 (stereo unspecified) | inactive: -7.12% |
| CCOC(=O)c1ccc(NP(C)(=O)Oc2cc(C)cc(C)c2)cc1 (stereo unspecified) | inactive: 3.88% |
| COc1ccccc1OP(C)(=O)Nc1cccc(Br)c1 (stereo unspecified) | inactive: -4% |
| Cc1nc2ccc3ccccc3c2s1.O=[N+]([O-])c1cc([N+](=O)[O-])c(O)c([N+](=O)[O-])c1 | inactive: 5.57% |
| O=[N+]([O-])c1cc([N+](=O)[O-])c(-c2cnn(-c3ccccc3)c2)c([N+](=O)[O-])c1 | inactive: 1.03% |
| CN(Cc1cccnc1)C(=O)COc1ccc(Cl)c(Cl)c1.O=[N+]([O-])c1cc([N+](=O)[O-])c(O)c([N+](=O)[O-])c1 | inactive: -10.4% |
| COc1ccc(-c2ccccn2)cc1.O=[N+]([O-])c1cc([N+](=O)[O-])c(O)c([N+](=O)[O-])c1 | inactive: -6.49% |
| CCCOc1ccc(NP(C)(=O)Oc2ccc(Cl)cc2)cc1 (stereo unspecified) | inactive: 0.605% |

| Compound | inhibition |
| --- | --- |
| CP(=O)(Nc1ccc(SC(F)(F)F)cc1)Oc1ccccc1 (stereo unspecified) | inactive: -0.603% |
| CN1CCCCC1COC(=O)C1(O)c2ccccc2CCc2ccccc21 (stereo unspecified) | inactive: 8.67% |
| COc1ccccc1OP(C)(=O)Nc1c(C)cccc1C (stereo unspecified) | inactive: 2.2% |
| CCOC(=O)C(CC)C1=NC(C)(C)Cc2ccccc21.O=[N+]([O-])c1cc([N+](=O)[O-])c(O)c([N+](=O)[O-])c1 (stereo unspecified) | inactive: -6.64% |
| O=[N+]([O-])c1cc([N+](=O)[O-])c(Nc2nnnn2CCO)c([N+](=O)[O-])c1 | inactive: 7.42% |
| CP(=O)(Nc1ccccc1Br)Oc1ccccc1 (stereo unspecified) | inactive: -3.6% |
| COc1ccccc1OP(C)(=O)Nc1ccccc1 (stereo unspecified) | inactive: -0.471% |
| O=[N+]([O-])c1cc([N+](=O)[O-])c(O)c([N+](=O)[O-])c1.c1ccc(Oc2ccncc2)cc1 | inactive: -2.65% |
| CCOC(=O)c1ccc(NP(C)(=O)Oc2ccc(OC)cc2)cc1 (stereo unspecified) | inactive: 2.68% |
| Cc1cc(C)cc(OP(C)(=O)Nc2ccc(SC(F)(F)F)cc2)c1 (stereo unspecified) | inactive: -11.4% |
| CCc1ccc(OP(C)(=O)N2CCN(c3ccc([N+](=O)[O-])cc3)CC2)cc1 (stereo unspecified) | inactive: -0.891% |
| CP(=O)(Nc1ccc(SC(F)(F)F)cc1)Oc1ccc(Cl)cc1 (stereo unspecified) | inactive: -6.72% |
| Cc1cccc(C)c1OP(C)(=O)Nc1ccc(SC(F)(F)F)cc1 (stereo unspecified) | inactive: -7.44% |
| COc1ccccc1-c1ccccn1.O=[N+]([O-])c1cc([N+](=O)[O-])c(O)c([N+](=O)[O-])c1 | inactive: 11.4% |
| CCN(CC)CCCOC(=O)C(O)(c1ccccc1)c1ccccc1 | inactive: -0.467% |
| Cc1cc(C)cc(OP(C)(N)=O)c1 (stereo unspecified) | inactive: -5.9% |
| COc1ccc(OP(C)(=O)Nc2cccc(F)c2)cc1 (stereo unspecified) | inactive: 6.75% |
| COc1ccccc1OP(C)(=O)Nc1cc(Cl)ccc1C (stereo unspecified) | inactive: 3.34% |
| Cc1ccc(NP(C)(=O)Oc2ccccc2)c(C)c1 (stereo unspecified) | inactive: 1.04% |
| CCOC(=O)c1ccc(NP(C)(=O)Oc2ccccc2)cc1 (stereo unspecified) | inactive: -8.21% |
| O=[N+]([O-])c1ccc2c(c1)C=Nc1ccccc1O2 | inactive: 2.41% |
| Cc1cccc(C)c1OP(C)(N)=O (stereo unspecified) | inactive: 1.87% |
| CC(C)(C)c1ccc(OP(C)(=O)Nc2ccc(SC(F)(F)F)cc2)cc1 (stereo unspecified) | inactive: 2.28% |
| O=[N+]([O-])c1cc([N+](=O)[O-])c(Nc2cccnc2)c([N+](=O)[O-])c1 | inactive: -1.09% |
